Tests used:
[1] = target: T1, Receptor-interacting serine/threonine-protein kinase 1 (Homo sapiens, UniProt Q13546)
T1 sequence (Q13546 whole entry): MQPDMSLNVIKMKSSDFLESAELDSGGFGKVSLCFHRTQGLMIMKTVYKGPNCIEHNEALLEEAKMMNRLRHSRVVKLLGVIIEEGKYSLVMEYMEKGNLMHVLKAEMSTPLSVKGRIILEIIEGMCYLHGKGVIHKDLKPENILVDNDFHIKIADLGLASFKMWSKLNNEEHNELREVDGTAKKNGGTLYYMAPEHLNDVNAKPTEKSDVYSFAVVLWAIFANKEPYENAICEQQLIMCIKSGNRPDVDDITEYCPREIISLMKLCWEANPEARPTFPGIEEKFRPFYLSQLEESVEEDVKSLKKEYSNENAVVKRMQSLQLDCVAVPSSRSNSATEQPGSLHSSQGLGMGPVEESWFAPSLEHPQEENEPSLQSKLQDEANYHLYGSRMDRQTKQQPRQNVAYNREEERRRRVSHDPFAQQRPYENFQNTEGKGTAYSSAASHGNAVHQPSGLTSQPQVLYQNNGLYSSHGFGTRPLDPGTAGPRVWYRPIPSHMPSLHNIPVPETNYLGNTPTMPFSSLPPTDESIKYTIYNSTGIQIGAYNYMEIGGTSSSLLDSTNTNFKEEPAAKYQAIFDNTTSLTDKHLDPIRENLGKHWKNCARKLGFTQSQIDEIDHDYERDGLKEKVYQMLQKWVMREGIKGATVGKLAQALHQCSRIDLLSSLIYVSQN

The chains behind the UniProt entries cited, without tags or fusion partners. Where a name states a change or a piece, a line headed by the entry shows the natural chain unless it says otherwise.
UniProt Q9Y572: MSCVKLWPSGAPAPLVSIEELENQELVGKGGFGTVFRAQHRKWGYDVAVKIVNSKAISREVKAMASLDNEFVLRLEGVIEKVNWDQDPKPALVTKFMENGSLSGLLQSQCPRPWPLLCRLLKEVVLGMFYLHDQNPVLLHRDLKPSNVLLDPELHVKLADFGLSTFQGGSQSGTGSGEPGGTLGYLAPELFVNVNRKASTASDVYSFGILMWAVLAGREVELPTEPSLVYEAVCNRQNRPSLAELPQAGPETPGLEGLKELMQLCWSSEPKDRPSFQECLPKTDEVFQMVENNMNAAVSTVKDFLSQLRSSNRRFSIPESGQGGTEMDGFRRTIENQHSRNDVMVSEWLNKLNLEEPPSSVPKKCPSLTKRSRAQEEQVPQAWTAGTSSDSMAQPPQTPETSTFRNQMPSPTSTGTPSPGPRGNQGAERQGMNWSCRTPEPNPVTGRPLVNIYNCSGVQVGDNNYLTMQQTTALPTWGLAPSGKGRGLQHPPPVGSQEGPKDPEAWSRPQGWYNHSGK

[2] = target: Receptor-interacting serine/threonine-protein kinase 3 (Homo sapiens, UniProt Q9Y572)

SMILES | Kd [1] [nM] | IC5 [2] [µM]
Cc1ccc(C(=O)Nc2ccccc2)cc1-c1ccc2nc(NCCN3CCOCC3)ncc2c1 | 199 | 
O=C(NCCc1ccccc1Cl)c1cn(-c2ccccc2)nn1 |  | < 0.25

Source: ChEMBL document CHEMBL5505961, “RIPK1 inhibitors: A key to unlocking the potential of necroptosis in drug development” (Eur J Med Chem, 2024)
